# Reference: patent US20100298300A1, “TRIAZOLOPYRAZINE COMPOUNDS USEFUL FOR THE TREATMENT OF DEGENERATIVE & INFLAMMATORY DISEASES” (priority 2006, published 2010)
# Assays:
# [1] = test system: MMP1 expression by activated primary synovial fibroblasts; assay: 'MMP assay': MMP1 expression by complex trigger activated synovial fibroblasts (MMP1 ELISA); format: cell-based; settings: Homo sapiens, Fibroblast, Table 3, RASFs, 48 hrs
# Procedure: A 384-well format ELISA for measurement of MMP1 is developed. Various primary antibodies are tested, as well as various ELISA protocols. The following protocol is developed and validated to measure MMP1 levels in SF supernatant in 384 well plates: white Lumitrac 600 384 well plates (Greiner) are coated with 2 μg/mL anti-MMP1 antibody MAB1346 (Chemicon). The antibody is diluted in buffer 40 (1.21 g Tris base (Sigma), 0.58 g NaCl (Calbiochem) and 5 ml 10% NaN3 (Sigma) in 1 L milliQ water and adjusted to pH 8.5). After overnight incubation at 4° C., plates are washed with PBS (80 g NaCl, 2 g KCl (Sigma), 11.5 g Na2HPO4.7H2O and 2 g KH2PO4 in 10 L milliQ; pH 7.4) and blocked with 100 μL/well Casein buffer (2% Casein (VWR International) in PBS). Next day, casein buffer is removed from ELISA plates and replaced by 50 μL/well EC buffer (4 g casein, 2.13 g Na2HPO4 (Sigma), 2 g bovine albumin (Sigma), 0.69 g NaH2PO4.H2O (Sigma), 0.5 g CHAPS (Roche), 23.3 g NaCl, 4 ml 0.5 M EDTA pH 8 (Invitrogen), 5 ml 10% NaN3 in 1 L milliQ and adjusted to pH 7.0). 0.25 mM DTT (Sigma) is added to the thawed samples plates. After removal of the EC buffer, 20 μL of sample is transferred to the ELISA plates. […] Readout is performed on the Luminoscan Ascent Luminometer (Labsystems) with an integration time of 200 msec or with an Envision reader (Perkin Elmer). […]
# [2] = test system: TNFα release by human PBMCs; assay: Cytokine release by LPS stimulated human PBMCs (TNFα ELISA); format: cell-based; settings: PBMC, Table 5, LPS 1 μg/mL, 24 hr
# Procedure: Human peripheral blood mononuclear cells (PBMCs) are isolated from “buffy coats” prepared from the blood of healthy volunteers, isolated essentially according to method of Bøyum (1984). In brief, buffy coat is diluted 1:1 with 1×PBS (Gibco) and 30 mL is carefully put on top of 20 mL Lymphoprep™ (Lucron Bioproducts) in 50 mL Falcon tubes. After centrifugation (35 min, 400 g, 18° C.) the mononuclear cells are collected from the white interphase and washed 3 times with 1×PBS by resuspending and centrifugation (10 min, 200 g). Isolated PBMCs are finally resuspended in RPMI 1640 (Cat. No. 21875, Gibco) that is supplemented with 10% heat-inactivated FBS (Hyclone). […]
# The following 384-well chemiluminescent ELISA protocol was developed to measure TNFα levels in the supernatant: White Lumitrac 600 384-well plates (Greiner) are coated with (40 μL/well) anti-TNFα capture antibody (Cat. No. 551220, BD Pharmingen) that is diluted to 1 μg/mL in 1×PBS (Gibco). […] Readout is performed on the Luminoscan Ascent Luminometer (Labsystems) with an integration time of 100 msec delivering raw data (RLU: relative luminescence units). […] The percent inhibition (PIN) of the TNFα release, achieved by the compounds is then calculated based on the RLU data returned by the ELISA with following formula: 100−[((TNFα level compound X at concentration Y−minimal TNFα levels)/maximal TNFα levels−minimal TNFα levels))×100]. […]
Compound,pEC50 [1],pEC50 [2]
"O=C1NCc2cc(-c3cnc(Nc4ccc(N5CCOCC5)cc4)c4ncnn34)ccc21 [Compound 33, 5-(8-(4-Morpholinophenylamino)-[1,2,4]triazolo[1,5-a]pyrazin-5-yl)isoindolin-1-one]",6.30 to 7.00,< 6.00
"c1nc2c(Nc3ccc(N4CCOCC4)cc3)ncc(-c3cn[nH]c3)n2n1 [Compound 1, (4-Morpholin-4-ylphenyl)-[5-(1H-pyrazol-4-yl)-[1,2,4]triazolo[1,5-a]pyrazin-8-yl]amine]",< 6.00,< 6.00

# pEC50: −log10 of the molar value.
